Assay results reported in PubChem BioAssay AID1117355 (Cheminformatics & Chemogenomics Research Group (CCRG), …, 2015).
Activity calls are given as the source filed them. No rule for the calls is given here.

Chains of the proteins cited; added tags and fusions are not shown.
UniProt P49841, whole entry, looked up: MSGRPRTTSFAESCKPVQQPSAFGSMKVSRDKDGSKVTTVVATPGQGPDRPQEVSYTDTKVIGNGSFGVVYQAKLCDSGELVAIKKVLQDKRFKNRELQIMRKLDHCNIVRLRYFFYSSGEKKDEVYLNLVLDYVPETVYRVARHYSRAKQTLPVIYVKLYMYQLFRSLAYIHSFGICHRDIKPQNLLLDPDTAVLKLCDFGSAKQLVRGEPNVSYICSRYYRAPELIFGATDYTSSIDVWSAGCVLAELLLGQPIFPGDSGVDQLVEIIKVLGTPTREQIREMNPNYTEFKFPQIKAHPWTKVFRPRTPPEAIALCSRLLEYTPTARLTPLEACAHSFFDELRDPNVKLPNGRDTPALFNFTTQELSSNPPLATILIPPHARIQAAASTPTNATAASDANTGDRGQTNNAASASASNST

Target: Glycogen synthase kinase-3 beta (Homo sapiens) (UniProt P49841)
Assay: NPC library primary assay, GSK-3β enzyme inhibitors, biochemical, Homo sapiens, LANCE Ultra TR-FRET detection (AID 1117355)
Conditions: LANCE Ultra TR-FRET kinase activity; at 20 µM (top of the series)

CN(CCCl)CCCl
inhibition: inactive: -3.27%
